# Assay results published in PubChem BioAssay AID1779 (Sanford-Burnham Center for Chemical Genomics, 2009).
# Protein sequences, listed by entry. Tags and fused reporters are not part of them.
# UniProt Q9Y2R2, whole entry, looked up: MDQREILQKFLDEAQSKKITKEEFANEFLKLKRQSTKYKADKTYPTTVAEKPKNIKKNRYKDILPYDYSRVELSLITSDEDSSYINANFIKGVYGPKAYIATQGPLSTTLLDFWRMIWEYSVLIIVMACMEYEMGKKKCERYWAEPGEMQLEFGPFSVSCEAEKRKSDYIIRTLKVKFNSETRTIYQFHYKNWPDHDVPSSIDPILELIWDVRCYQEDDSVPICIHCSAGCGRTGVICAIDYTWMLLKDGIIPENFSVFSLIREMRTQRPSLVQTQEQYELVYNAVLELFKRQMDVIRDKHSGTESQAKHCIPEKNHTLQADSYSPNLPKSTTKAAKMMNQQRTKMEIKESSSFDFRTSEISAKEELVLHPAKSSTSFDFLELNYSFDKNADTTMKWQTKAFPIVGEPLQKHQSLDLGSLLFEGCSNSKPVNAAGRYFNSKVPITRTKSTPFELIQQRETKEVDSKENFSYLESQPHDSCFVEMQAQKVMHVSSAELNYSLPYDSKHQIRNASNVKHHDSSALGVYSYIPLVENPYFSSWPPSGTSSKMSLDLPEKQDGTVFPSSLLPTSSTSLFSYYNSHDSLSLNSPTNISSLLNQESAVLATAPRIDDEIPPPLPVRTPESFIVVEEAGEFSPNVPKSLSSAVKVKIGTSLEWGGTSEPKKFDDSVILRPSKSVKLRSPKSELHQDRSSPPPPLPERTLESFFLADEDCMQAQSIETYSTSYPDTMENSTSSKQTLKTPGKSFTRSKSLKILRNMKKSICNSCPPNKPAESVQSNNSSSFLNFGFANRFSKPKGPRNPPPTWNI
# This is a selection; strong and weak results do not stand in their true shares. Calls of active or inactive are those of the source. Rule as the data show it: active = inhibition above about 50%; inactive = the rest.
# Target: Tyrosine-protein phosphatase non-receptor type 22 (Homo sapiens) (UniProt Q9Y2R2)
# Test: inhibitors of LYP phosphatase, biochemical, fluorescence intensity, uHTS (AID 1779);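 also: plate controls were vehicle with enzyme for no effect and no enzyme for full effect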
# Settings: recombinant LYP phosphatase, at 11.5 µM, hits give high values
row,SMILES,inhibition
1,O=[N+]([O-])c1cc([N+](=O)[O-])c(CCNc2ccccc2)c([N+](=O)[O-])c1,inactive: -4.7%
2,CCc1nc2c(n1)c1c(non1O)c1c2no[n+]1[O-],inactive: -6.5%
3,Cc1ccc(NP(=O)(Oc2ccccc2)Oc2ccccc2)nc1,inactive: -2%
4,COc1ccc(C2=NCC(CBr)S2)cc1 (configuration not stated),inactive: 0.7%
5,O=[N+]([O-])c1cccc(NC2=NCC(CBr)S2)c1 (configuration not stated),inactive: -7.5%
6,O=C(O)CNc1ccc([As](=O)(O)O)cc1,inactive: -6.1%
7,CC(C)(C)C(=O)NC(Sc1ccncn1)C(Cl)(Cl)Cl (configuration not stated),inactive: -2%
8,O=[N+]([O-])c1ncn(CCn2ncnc2[N+](=O)[O-])n1,inactive: 2.9%
9,O=C(Nc1cc([As](=O)(O)O)ccc1O)c1ccccc1,inactive: -3.7%
10,C(Cc1nn[nH]n1)Cc1nn[nH]n1,inactive: -5.9%
11,Nc1ccc([As](=O)(O)c2ccc([N+](=O)[O-])cc2)cc1,inactive: -4.2%
12,O=C(OC1CN2CCC1CC2)c1cccc(Cl)c1 (configuration not stated),inactive: -1.8%
13,CC(=O)NC(SC(=S)N(C)C)C(Cl)(Cl)Cl (configuration not stated),inactive: -4.6%
14,O=[N+]([O-])c1ncn(CCn2cnc([N+](=O)[O-])n2)n1,inactive: -10.8%
15,O=[N+]([O-])c1ccc(O)c(/C=N/Nc2ccc([N+](=O)[O-])cc2[N+](=O)[O-])c1,inactive: -2.8%
16,O=[As](O)(c1ccccc1)c1ccc(O)cc1,inactive: -10.5%
17,C[C@H]1OP(=O)(Oc2ccccc2)[C@H](O)[C@H](O)[C@H]1N=[N+]=[N-] (some centres not stated),inactive: -10.1%
18,O=P(Nc1nc2ccccc2s1)(c1ccccc1)c1ccccc1,inactive: -3.8%
19,CN(C)C1(CNC(=O)c2ccc(Cl)c(S(N)(=O)=O)c2)CCCCC1,inactive: -1.3%
20,O=P(Nc1ccccn1)(c1ccc(Br)cc1)c1ccc(Br)cc1,inactive: -6.2%
21,c1nnnn1CCn1cnnn1,inactive: -9.4%
22,O=P(Nc1nccs1)(c1ccccc1)c1ccccc1,inactive: 3.3%
23,CC(C)C(=O)NC(Sc1ccccc1)C(Cl)(Cl)Cl (configuration not stated),inactive: -1.6%

row,SMILES,inhibition
1,CC(=O)Nc1ccc(Oc2c([N+](=O)[O-])cc([N+](=O)[O-])cc2[N+](=O)[O-])cc1,inactive: 0.1%
2,CC(=O)Nc1ccc([As](=O)(O)O)c(O)c1,inactive: -5.9%
3,CC(=O)c1ccc(N2CC2c2ccncc2)cc1 (configuration not stated),inactive: -3.9%
4,C[C@H]1OP(=O)(Oc2ccccc2)C[C@@H]2O[C@@H]21 (some centres not stated),inactive: -7%
5,C[C@@H]1C=CCP(=O)(Oc2ccccc2)O1 (some centres not stated),inactive: -7.9%
6,CC(C)(C)C(=O)NC(Sc1ccccc1)C(Cl)(Cl)Cl (configuration not stated),inactive: -2.8%
7,CCOc1ccc(C2=NCC(CBr)S2)cc1 (configuration not stated),inactive: -3.2%
8,O=P1(Nc2nc3ccc(Cl)cc3s2)COc2ccccc2O1 (configuration not stated),inactive: -1.1%
9,O=c1c2cc([N+](=O)[O-])ccc2[nH]c2c([N+](=O)[O-])cc([N+](=O)[O-])cc12,inactive: -5%
10,CN(C)C(=O)Oc1noc2ccccc12,inactive: -2.8%
11,Cc1ccccc1OP(=O)(Nc1ccccn1)Oc1ccccc1C,inactive: -3.4%
12,CC(=O)NC(SC(=S)N(CC(C)C)CC(C)C)C(Cl)(Cl)Cl (configuration not stated),inactive: -4.9%
13,Cc1ccc(OP(=O)(Nc2ccccn2)Oc2ccc(C)cc2)cc1,inactive: -3%
14,COC(=O)c1cc2c(s1)N=C(c1ccccc1)N(C)P2(=O)N1CCOCC1 (configuration not stated),inactive: 6%
15,CCC(=O)N1C2C3N(C(=O)CC)C1C1N(C(=O)CC)C(C(N1C(=O)CC)N3C(=O)CC)N2C(=O)CC,inactive: -7.5%
16,O=C(OC1CN2CCC1CC2)c1ccccc1 (configuration not stated),inactive: -7.8%
17,O=C(NC1CCS(=O)(=O)C1)NP(=S)(Oc1ccccc1)Oc1ccccc1 (configuration not stated),inactive: -5%
18,CCNC(=S)/N=C(\N)N[N+](=O)[O-],inactive: -4.5%
19,Cc1ccc(NP(=O)(Oc2cccc(C)c2)Oc2cccc(C)c2)nc1,inactive: -6.2%
20,CCOC(=O)NC(Sc1ccccc1)C(Cl)(Cl)Cl (configuration not stated),inactive: -13.5%
21,c1ccc(-c2nn[nH]n2)c(-c2nn[nH]n2)c1,inactive: 0.6%
22,O=[N+]([O-])c1ccc2c(c1)nnn2O,inactive: -2.4%
23,CCOP1(=S)c2c(C)nn(CCC#N)c2N=C(c2ccc(F)cc2)N1C (configuration not stated),inactive: -3.8%

row,SMILES,inhibition
1,CN(C(=O)Cc1ccccc1)[C@@H]1CC[C@]2(CCCO2)C[C@H]1N1CCCC1,inactive: -0.9%
2,NC(=O)Nc1ccc([As](=O)(O)O)cc1,inactive: -6.8%
3,O=C(O)COc1ccc([As](=O)(O)O)cc1[N+](=O)[O-],inactive: 0.6%
4,Nc1ccccc1[As](=O)(O)c1ccccc1,inactive: -10.5%
5,CS(=O)(=O)c1cc([N+](=O)[O-])c2no[n+]([O-])c2c1,inactive: -4.4%
6,O=P(Nc1nccs1)(Oc1ccccc1)Oc1ccccc1,inactive: -5.5%
7,O=P(Nc1nccs1)(c1ccccc1)c1nc2ccccc2s1 (configuration not stated),inactive: 5.2%
8,CCOP1(=S)c2c(C)nn(CCC#N)c2N=C(c2ccccc2F)N1C (configuration not stated),inactive: -6.1%
9,CCOP(=O)(Nc1cccc2ccccc12)OCC,inactive: -6.3%
10,COc1cc(C2NCCC3(OCCO3)C2(C)C)cc(OC)c1OC (configuration not stated),inactive: -1.8%
11,CCCOP(=S)(Nc1nc(N)cc(=O)[nH]1)OCCC,inactive: -0.8%
12,Cc1ccc(NCCc2c([N+](=O)[O-])cc([N+](=O)[O-])cc2[N+](=O)[O-])cc1,inactive: 2.9%
13,Nc1cccc2c([As](=O)(O)O)cccc12,inactive: -4%
14,Cc1cccc(OCC(=O)OC2CN3CCC2CC3)c1 (configuration not stated),inactive: -1.7%
15,O=[As](O)(c1cccc(O)c1)c1cccc(O)c1,inactive: -4.8%
16,CS(=O)(=O)c1ccc(Cl)c(NC(=O)COC(=O)C(O)(c2ccccc2)c2ccccc2)c1,inactive: -9.7%
17,O=[As](O)(O)c1cccnc1,inactive: -7.5%
18,COc1cc(C(=O)NCC2(N3CCOCC3)CCCCC2)cc(Cl)c1OC(C)C,inactive: 2.1%
19,O=C(OC1CN2CCC1CC2)c1ccc(Cl)cc1 (configuration not stated),inactive: 0.1%
20,O=[As](O)(c1ccccc1Br)c1ccccc1Br,inactive: -7.3%
21,CN(C(=O)Cc1ccc(Cl)c(Cl)c1)[C@@H]1CCCC[C@H]1N1CCCC1,inactive: -4%
22,CC(C)/C=N\N=C(\N)N[N+](=O)[O-],inactive: -8%
23,CC(C)(C)C(=O)NC(Sc1ncccn1)C(Cl)(Cl)Cl (configuration not stated),inactive: -9.3%

row,SMILES,inhibition
1,Clc1n[nH]nc1-c1nn[nH][15n]1,inactive: -4.8%
2,CCOP(=O)(Nc1ccc(C)cn1)OCC,inactive: -4.6%
3,CCOP(=O)(NC(=NC(C)c1ccccc1)NC(C)c1ccccc1)OCC (configuration not stated),inactive: -8.7%
4,CCC1=CC2Cc3nc4ccc(Cl)cc4c(N)c3C(C1)C2 (configuration not stated),inactive: -11.3%
5,O=P1(Nc2ccccn2)COc2ccccc2OC1,inactive: -4.7%
6,Cc1ccc(OCC(=O)OC2CN3CCC2CC3)cc1 (configuration not stated),inactive: -1.2%
7,O=[As](O)(c1cccs1)c1cccs1,inactive: -4.3%
8,O=P1(Nc2ccc(Br)cn2)COc2ccccc2OC1,inactive: -4.7%
9,Nc1cccc([As](=O)(O)c2ccccc2)c1,inactive: -10.6%
10,O=P1(Nc2ncccn2)COc2ccccc2OC1,inactive: -1%
11,O=C(/C=C/c1ccccc1)OC1CN2CCC1CC2 (configuration not stated),inactive: -4.9%
12,CN(C)C1(CNC(=O)c2ccc(S(C)(=O)=O)cc2)CCCCC1,inactive: -2%
13,Cc1ccc(C(=O)OC2CN3CCC2CC3)cc1 (configuration not stated),inactive: -1.7%
14,CC1CCC(C(C)C)C(OP(=O)(Nc2ccccn2)c2ccccc2)C1 (configuration not stated),inactive: -0.7%
15,Cc1nn(-c2ccccc2)c2c1P(=O)(N1CCOCC1)N(C)C(c1ccccc1)=N2 (configuration not stated),inactive: -4.6%
16,O=[N+]([O-])c1ccc(Nc2ccc(Oc3ccc([N+](=O)[O-])cc3[N+](=O)[O-])cc2)c([N+](=O)[O-])c1,inactive: 0.7%
17,Cc1cc(SC(NC=O)C(Cl)(Cl)Cl)ncn1 (configuration not stated),inactive: -7%
18,O=P(Nc1ccccn1)(c1cccc2ccccc12)c1cccc2ccccc12,inactive: 2.4%
19,CCOC(=O)Nc1cccc([As](=O)(O)O)c1,inactive: -7.6%
20,Cc1cc(SC(NC(=O)c2ccccc2)C(Cl)(Cl)Cl)nc(C(C)C)n1 (configuration not stated),inactive: -11.1%
21,CCCCOc1ccc(C(=O)NCC2(N3CCCCC3)CCCCC2)cc1OC,inactive: -14.6%
22,CCOC(=O)Nc1ccc([As](=O)(O)O)c(O)c1,inactive: -7.7%
23,CCC(C)N(CC(C)C)C(=S)SC(NC(C)=O)C(Cl)(Cl)Cl (configuration not stated),inactive: -7.2%

row,SMILES,inhibition
1,CCOC(=O)c1ccc(NC(=O)C(C)(CCl)SC)cc1 (configuration not stated),inactive: -5.2%
2,O=C(OC1CN2CCC1CC2)c1cccc([N+](=O)[O-])c1 (configuration not stated),inactive: -6.7%
3,O=C(Nc1ccncc1[N+](=O)[O-])c1ccc([N+](=O)[O-])cc1[N+](=O)[O-],inactive: -6.1%
4,O=C(COc1ccccc1)OC1CN2CCC1CC2 (configuration not stated),inactive: 1%
5,COP1(=S)c2c(C)nn(CCC#N)c2N=C(c2ccc(F)cc2)N1C (configuration not stated),inactive: -8%
6,COc1ccc(N/C(=N/P(=O)(N2CCOCC2)N2CCOCC2)N2CCOCC2)cc1,inactive: -5.3%
7,COc1cc(I)ccc1[As](=O)(O)O,inactive: -5%
8,COc1ccc2nc(NP(=O)(c3ccccc3)c3ccccc3)sc2c1,inactive: 1.7%
9,Cc1cc(=O)[nH]c(N[N+](=O)[O-])n1,inactive: 0.9%
10,O=C(OC1CN2CCC1CC2)C12CC3CC(CC(C3)C1)C2 (configuration not stated),inactive: -6.5%
11,Cc1c2c(nc3ccccc13)SC(C(Cl)Cl)C2 (configuration not stated),inactive: 0%
12,O=[N+]([O-])c1cc([N+](=O)[O-])c(-c2ccn[nH]2)s1,inactive: 0.1%
13,CC(C)NC(=O)NP(=O)(Oc1ccccc1)Oc1ccccc1,inactive: -1.8%
14,CCN(CC)C(=S)SC(NC=O)C(Cl)(Cl)Cl (configuration not stated),inactive: -1.9%
15,CC(C)c1ccc(OP(=O)(Nc2ccccn2)Oc2ccccc2F)cc1 (configuration not stated),inactive: -1.6%
16,ClCCSc1nnc(-c2cccnc2)o1,inactive: -6.6%
17,Cc1ccc2nc3c(c(C)c2c1)CC(C(Cl)Cl)S3 (configuration not stated),inactive: 0%
18,Cc1ccc(OP(=O)(Nc2ccc([N+](=O)[O-])cn2)Oc2ccc(C)cc2)cc1,inactive: -2.3%
19,O=[As](O)(c1ccc(O)cc1)c1ccccc1O,inactive: -13.1%
20,C[As](=O)(O)c1cccc(C(=O)O)c1,inactive: -6.8%
